## Yeast mating assay B: variants of the scFv Ab-14

Reference: Li et al. 2023, doi:10.1038/s41467-023-39022-2. File: FLAb, binding data.

Binding partner: SARS-CoV-2 spike HR2 peptide, sequence PDVDLGDISGINAS.

The variants keep the light chain, the linker and the frameworks of Ab-14 (scFv order VH, a 15-residue (Gly4Ser)3 linker, VL).
VH: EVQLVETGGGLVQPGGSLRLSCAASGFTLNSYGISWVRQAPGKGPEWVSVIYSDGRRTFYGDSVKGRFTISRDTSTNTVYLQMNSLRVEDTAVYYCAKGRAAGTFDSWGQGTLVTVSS
VL: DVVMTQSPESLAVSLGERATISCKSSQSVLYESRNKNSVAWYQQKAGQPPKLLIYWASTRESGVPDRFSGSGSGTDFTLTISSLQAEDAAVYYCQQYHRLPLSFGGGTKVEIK

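The parent was found by panning a naive human phage display library on the peptide. This is the validation round: designs drawn from the data on random variants, tested in the same kind of assay. Several design methods are mixed in this list. The assay is AlphaSeq: two haploid yeast populations carry antibody and antigen on their surface. Mating (16 h, 30 °C) was followed by selection of diploids and sequencing of their barcodes. Read counts were normalised to the haploid input and turned into Kd by a linear fit to BCL2-family pairs of known affinity, for each replicate. Mating was done six times.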

Sequences are complete VH domains. Kd is apparent (estimated from mating counts) and averaged on the log scale over replicates with a signal. Smaller is tighter. Where no diploid with the target was found in any replicate, the entry reads "no signal": below detection, most likely a poor binder, though not proof of it. The authors' rule: three or more of the six replicates give a measured affinity, fewer mean a poor binder. Empty control strains, which show no peptide, gave a signal in 1% of pairings with all heavy chain designs; the median was 120 nM and 95% of these signals were weaker than 7.0 nM. No background was subtracted. Also given: how often the same scFv was detected with the empty control strains. A sequence measured in both rounds can read differently, since the two assays cover different ranges.

| # | VH | Kd (apparent) | seen in | empty controls |
|---|---|---|---|---|
| 1 | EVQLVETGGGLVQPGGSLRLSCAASGFSLNSYGISWVRQAPGKGPEWVSVIYSDGRRTFYADNVKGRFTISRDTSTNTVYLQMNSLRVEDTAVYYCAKGITAGTFDSWGQGTLVTVSS | 5.0 nM | 6/6 | 0/18 |
| 2 | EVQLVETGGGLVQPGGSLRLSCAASGFDLNEYGISWVRQAPGKGPEWVSVIYADGKRTFYADSVKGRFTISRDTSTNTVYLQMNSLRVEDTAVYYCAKGEVAGTFDQWGQGTLVTVSS | 620 pM | 6/6 | 1/18 |
| 3 | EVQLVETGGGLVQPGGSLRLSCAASGFDLNEYGISWVRQAPGKGPEWVSVIYADGMRTYYVDSVKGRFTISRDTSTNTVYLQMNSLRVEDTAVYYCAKGNVAGTFDVWGQGTLVTVSS | 720 pM | 6/6 | 0/18 |
| 4 | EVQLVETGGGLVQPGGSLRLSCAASGFSLDEMGISWVRQAPGKGPEWVSVIYADGQRTAYQASVKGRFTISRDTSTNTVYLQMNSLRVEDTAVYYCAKGQNIVNVFVWGQGTLVTVSS | no signal | 0/6 | 0/18 |
| 5 | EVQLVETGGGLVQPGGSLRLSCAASGFDLDEYGISWVRQAPGKGPEWVSVIYADGKRTAYADSVKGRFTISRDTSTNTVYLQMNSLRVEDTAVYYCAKGETAGTFDTWGQGTLVTVSS | 10 nM | 6/6 | 1/18 |
| 6 | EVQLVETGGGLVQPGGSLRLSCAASGFTLNSYGISWVRQAPGKGPEWVSVIYADGRRTAYGDSVKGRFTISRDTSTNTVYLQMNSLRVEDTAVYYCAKEDAAGTFDQWGQGTLVTVSS | no signal | 0/6 | 0/18 |
| 7 | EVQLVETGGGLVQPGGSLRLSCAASGFTLNKYGISWVRQAPGKGPEWVSVIYSDGRRTFYGDSVKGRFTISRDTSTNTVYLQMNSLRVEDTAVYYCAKIDAAGTFESWGQGTLVTVSS | no signal | 0/6 | 0/18 |
| 8 | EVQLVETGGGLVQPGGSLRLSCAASGFNLNSYGISWVRQAPGKGPEWVSVIYSDGRRTFYIDSVKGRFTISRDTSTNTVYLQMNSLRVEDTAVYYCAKGRTAGTFDSWGQGTLVTVSS | 1.5 nM | 4/6 | 0/18 |
| 9 | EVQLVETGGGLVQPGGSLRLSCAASGFDLNEYGISWVRQAPGKGPEWVSVIYADGVRTAYVDSVKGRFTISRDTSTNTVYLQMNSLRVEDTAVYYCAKGTNAGTFDVWGQGTLVTVSS | 320 pM | 6/6 | 0/18 |
| 10 | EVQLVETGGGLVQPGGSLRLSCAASGFDLNEYGISWVRQAPGKGPEWVSVIYADGRRKFYADSVKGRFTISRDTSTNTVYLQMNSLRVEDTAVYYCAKGNVAGTFDVWGQGTLVTVSS | 170 pM | 6/6 | 0/18 |
| 11 | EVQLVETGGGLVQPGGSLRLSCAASGFDLNEYGISWVRQAPGKGPEWVSVIYADGKRTFYADSVKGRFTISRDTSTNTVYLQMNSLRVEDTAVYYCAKGQLAGTFDLWGQGTLVTVSS | 340 pM | 6/6 | 0/18 |
| 12 | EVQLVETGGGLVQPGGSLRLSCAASGFDLDEYGISWVRQAPGKGPEWVSVIYADGRRTFYADSVKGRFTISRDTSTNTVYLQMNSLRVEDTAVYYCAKGEAAGTFDKWGQGTLVTVSS | 740 pM | 6/6 | 0/18 |
| 13 | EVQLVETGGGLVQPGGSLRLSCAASGFLLNEYGISWVRQAPGKGPEWVSVIYADGLRTQYAENVKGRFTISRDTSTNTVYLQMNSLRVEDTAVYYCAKGDLAGYLDSWGQGTLVTVSS | no signal | 0/6 | 0/18 |
| 14 | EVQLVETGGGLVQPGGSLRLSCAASGFDLNEYGISWVRQAPGKGPEWVSVIYADGSRTAYSDSVKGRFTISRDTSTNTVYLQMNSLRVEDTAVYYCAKGSNAGTFDVWGQGTLVTVSS | 670 pM | 6/6 | 0/18 |
| 15 | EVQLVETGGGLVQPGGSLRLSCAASGFNLNEYGISWVRQAPGKGPEWVSVIYADGMRTAYSDSVKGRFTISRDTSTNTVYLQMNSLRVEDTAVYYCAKGEAAGTFDVWGQGTLVTVSS | 190 pM | 6/6 | 0/18 |
| 16 | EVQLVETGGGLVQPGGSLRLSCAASGMNLDEYGISWVRQAPGKGPEWVSVIYADGVRCEYANTVKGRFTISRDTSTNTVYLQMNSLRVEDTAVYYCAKGELAGFFMLWGQGTLVTVSS | 12 nM | 6/6 | 0/18 |
| 17 | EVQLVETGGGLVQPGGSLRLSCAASGFSLNDYGISWVRQAPGKGPEWVSVIYSDGRRTFYGDSVKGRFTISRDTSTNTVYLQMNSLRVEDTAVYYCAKGTAAGTFDSWGQGTLVTVSS | 300 pM | 6/6 | 0/18 |
| 18 | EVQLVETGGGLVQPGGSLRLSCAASGFDLNEYGISWVRQAPGKGPEWVSVIYADGKRSAYADSVKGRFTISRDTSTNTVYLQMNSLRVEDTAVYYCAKGNVAGTFDLWGQGTLVTVSS | 390 pM | 6/6 | 0/18 |
| 19 | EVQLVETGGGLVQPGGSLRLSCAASGFDLNEYGISWVRQAPGKGPEWVSVIYADGKRTFYSDSVKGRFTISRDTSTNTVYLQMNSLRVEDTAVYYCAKGNVAGTFDIWGQGTLVTVSS | 2.0 nM | 5/6 | 0/18 |
| 20 | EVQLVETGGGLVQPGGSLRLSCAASGFQLDEFGISWVRQAPGKGPEWVSVIYADGVRSSYVDDVKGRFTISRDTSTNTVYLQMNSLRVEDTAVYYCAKGEGTGAFSVWGQGTLVTVSS | no signal | 0/6 | 0/18 |

Top 2 of the variants detected in all replicates, tightest first:

| VH | Kd (apparent) | seen in | empty controls |
|---|---|---|---|
| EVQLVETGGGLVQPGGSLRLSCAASGFDLNEYGISWVRQAPGKGPEWVSVIYADGRRKFYADSVKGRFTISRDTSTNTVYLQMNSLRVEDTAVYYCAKGNVAGTFDVWGQGTLVTVSS | 170 pM | 6/6 | 0/18 |
| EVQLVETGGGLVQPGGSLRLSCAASGFNLNEYGISWVRQAPGKGPEWVSVIYADGMRTAYSDSVKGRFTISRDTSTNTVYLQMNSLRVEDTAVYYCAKGEAAGTFDVWGQGTLVTVSS | 190 pM | 6/6 | 0/18 |